Test results taken from PubChem BioAssay AID1497 (Sanford-Burnham Center for Chemical Genomics, 2009).
This is a selection; strong and weak results do not stand in their true shares. Activity calls are given as the source filed them.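 Rule for the calls: active = primary inhibition of 50% or more at 10 µM, then 40% or more on retest; inactive = the rest.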

The chains behind the UniProt entries cited, without tags or fusion partners.
UniProt P05107, whole entry, looked up: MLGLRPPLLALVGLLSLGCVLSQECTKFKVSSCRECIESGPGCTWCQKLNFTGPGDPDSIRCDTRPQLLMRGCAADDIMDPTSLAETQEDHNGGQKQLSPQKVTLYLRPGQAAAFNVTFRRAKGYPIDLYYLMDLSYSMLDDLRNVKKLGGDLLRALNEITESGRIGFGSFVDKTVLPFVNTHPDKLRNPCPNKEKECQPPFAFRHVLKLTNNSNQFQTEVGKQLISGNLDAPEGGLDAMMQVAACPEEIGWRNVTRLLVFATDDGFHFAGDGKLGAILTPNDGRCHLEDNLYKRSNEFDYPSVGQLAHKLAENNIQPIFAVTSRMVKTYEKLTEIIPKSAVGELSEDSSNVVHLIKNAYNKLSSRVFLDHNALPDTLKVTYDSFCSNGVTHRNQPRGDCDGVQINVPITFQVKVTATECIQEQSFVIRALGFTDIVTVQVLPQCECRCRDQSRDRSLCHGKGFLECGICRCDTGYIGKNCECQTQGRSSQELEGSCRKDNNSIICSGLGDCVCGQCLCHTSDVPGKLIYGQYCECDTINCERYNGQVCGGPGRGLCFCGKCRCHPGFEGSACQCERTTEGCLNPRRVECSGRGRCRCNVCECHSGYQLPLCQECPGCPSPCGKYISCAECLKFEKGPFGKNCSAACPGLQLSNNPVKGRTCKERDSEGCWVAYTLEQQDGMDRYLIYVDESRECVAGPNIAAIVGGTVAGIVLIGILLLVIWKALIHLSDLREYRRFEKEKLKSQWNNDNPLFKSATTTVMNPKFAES

target: Integrin beta-2 (Homo sapiens) + Integrin alpha-M (Homo sapiens) (UniProt P05107+P11215); test: antagonists of integrin CD11b/CD18-fibrinogen binding – K562 cells, luminescence, primary screen (AID 1497); conditions: K562 CD11b/CD18 adhesion to fibrinogen, ATPlite luminescence; at 10 µM; stronger effect = higher value; Mn2+ added to activate the integrin

Row | Structure (SMILES) | inhibition
1 | Cc1nc2ccc3ccccc3c2s1.O=[N+]([O-])c1cc([N+](=O)[O-])c(O)c([N+](=O)[O-])c1 | inactive: 0.9%
2 | Cc1cc(C)cc(OP(C)(=O)Nc2ccccn2)c1 (stereo not given) | inactive: -0.6%
3 | Cc1ccc(C)c(NP(C)(=O)Oc2ccccc2)c1 (stereo not given) | inactive: 5.7%
4 | Cc1cc(C)cc(OP(C)(=O)Nc2ccc(C)cc2C)c1 (stereo not given) | inactive: -55.3%
5 | COc1ccccc1OP(C)(=O)Nc1ccc(C)cc1 (stereo not given) | inactive: 2%
6 | Cc1ccc(NP(C)(=O)Oc2ccccc2)c(C)c1 (stereo not given) | inactive: 11.6%
7 | COc1ccc(OP(C)(=O)Nc2cccc(F)c2)cc1 (stereo not given) | inactive: 9.3%
8 | CCOP(C)(=S)SCC(=O)NC(C)C(=O)O (stereo not given) | inactive: 2.1%
9 | CCOC(=O)c1ccc(NP(C)(=O)Oc2ccc(OC)cc2)cc1 (stereo not given) | inactive: 1.5%
10 | CP(=O)(Nc1ccccn1)Oc1ccc(Cl)cc1 (stereo not given) | inactive: -3.4%
11 | Cc1cccc(C)c1OP(C)(=O)Nc1ccc(SC(F)(F)F)cc1 (stereo not given) | inactive: 82.2%
12 | CP(=O)(NC(=O)Nc1ccccc1)Oc1ccccc1 (stereo not given) | inactive: -13%
13 | Cc1cc(C)cc(OP(C)(=O)Nc2ccc(SC(F)(F)F)cc2)c1 (stereo not given) | inactive: 4%
14 | CP(=S)(Nn1cnnc1)Oc1ccccc1 (stereo not given) | inactive: -20.1%
15 | CP(=O)(OC12CC3CC(CC(C3)C1)C2)OC12CC3CC(CC(C3)C1)C2 | inactive: -1.9%
16 | CC(C)(C)c1ccc(OP(C)(=O)O)cc1 | inactive: -8.9%
17 | CCN(CC)CC(O)COC(=O)C(O)(c1ccccc1)C1CCCCC1 (stereo not given) | inactive: 3.4%
18 | CP(=O)(Oc1ccccc1)N1CCOC1=O (stereo not given) | inactive: -1.3%
19 | COc1ccccc1OP(C)(=O)Nc1c(C)n(C)n(-c2ccccc2)c1=O (stereo not given) | inactive: -12.8%
20 | CP(=O)(Nc1ccccn1)Oc1ccccc1 (stereo not given) | inactive: -10.8%
21 | CN(C)CCOC(=O)C(O)(c1ccccc1)C1CCCC1 (stereo not given) | inactive: 1%
22 | COc1ccc(OP(C)(=O)Nc2ccccn2)cc1 (stereo not given) | inactive: -12.1%
23 | Cc1nc2ccc3ccccc3c2o1.O=[N+]([O-])c1cc([N+](=O)[O-])c(O)c([N+](=O)[O-])c1 | inactive: 15.2%
24 | COc1ccc(OP(C)(=O)Nc2ccccc2Br)cc1 (stereo not given) | inactive: 2.9%
25 | COc1ccccc1OP(C)(=O)Nc1ccc(C)c(C)c1 (stereo not given) | inactive: 1.5%
26 | CP(=O)(Nc1ccccc1F)Oc1ccccc1 (stereo not given) | inactive: -0.3%
27 | Cc1ccccc1NP(C)(=O)Nc1ccccc1C | inactive: -4.4%
28 | CCOP(C)(=S)SCC(=O)NC(C)(CC)C(=O)O (stereo not given) | inactive: -4.6%
29 | COc1ccc(OP(C)(=O)Nc2cccc(Br)c2)cc1 (stereo not given) | inactive: 6.7%
30 | CN(C)CCOC(=O)C(O)(c1ccccc1)C1CCCCC1 (stereo not given) | inactive: -6.6%
